Assay results as given in patent US11266655B2, “Methods and compositions for treating urea cycle disorders” (Camp4 Therapeutics Corporation, priority 2019, dated 2022).

How the values were obtained:
urea cycle genes = assay: RNA-seq of primary human hepatocytes, compounds that modulate multiple urea cycle-related genes; assay type: cell-based
NAGS = assay type: cell-based, human
ASS1 = assay: RNA-seq of compound-treated primary human hepatocytes, ASS1 expression; assay type: cell-based; details: RNA-seq (Table 4)
CPS1 = assay: RNA-seq of compound-treated primary human hepatocytes, CPS1 expression; assay type: cell-based
ARG1 = assay: RNA-seq of compound-treated primary human hepatocytes, ARG1 expression; assay type: cell-based; details: for Fold change (Log 2) vs untreated, ARG1 expression: primary human hepatocytes, RNA-seq (Table 7)
ASL = assay: RNA-seq of compound-treated primary human hepatocytes, ASL expression; assay type: cell-based
SLC25A15 = assay: RNA-seq of compound-treated primary human hepatocytes, SLC25A15 expression; assay type: cell-based
OTC = assay: RNA-seq of compound-treated primary human hepatocytes, OTC expression; assay type: cell-based
[1] = primary human hepatocytes, RNA-seq
[2] = primary human hepatocytes, RNA-seq, urea cycle-related genes significantly increased (Table 10)

With C1=C/COCc2cc(ccc2OCCN2CCCC2)Nc2nccc(n2)-c2cccc(c2)COC/1 [Pacritinib (SB1518), Pacritinib] as the compound, how does the “number of urea cycle genes whose expression was significantly up-regulated” value (urea cycle genes; [1]) read?
The value was “five”.

What about the “Up-regulated Genes” value (urea cycle genes; [2]) of the same compound?
Its value is “CPS1, ASS1, ASL, OTC, ARG1”.

With “BMP2: Bone morphogenetic protein 2 (BMP2) belongs to the TGF-B superfamily” as the compound, how does the “Fold change (Log 2) vs untreated, NAGS expression” value (NAGS) read?
Its value is 0.6 Log 2.

What about the “Fold change (Log 2) vs untreated, ASS1 expression” value (ASS1) of the same compound?
The value was 0.75 Log 2.

And the “number of urea cycle genes whose expression was significantly up-regulated” value (urea cycle genes; [1])?
Its value is “four”.

What about the “Up-regulated Genes” value (urea cycle genes; [2]) of the same compound?
Its value is “ASS1, CPS1, NAGS, ARG1”.

And the “CPS1 expression, Fold change (Log 2) vs untreated” value (CPS1)?
The value was 1.31 Log 2.

What about the “Fold change (Log 2) vs untreated, ARG1 expression” value (ARG1) of the same compound?
Its value is 0.81 Log 2.

Which “increase in ASL gene expression (Table 25, FIG. 17)” value (ASL) does the source give for CC1(COc2ccc3c(c2)ncn3-c2ccc3cccc(N4CCC(N)CC4)c3n2)COC1 [Crenolanib] here?
The value was “greatest increase”.

And the “Increase in SLC25A15 gene expression (qualitative)” value (SLC25A15)?
Its value is “greatest increase”.

What about the “Up-regulated Genes” value (urea cycle genes) of the same compound?
Its value is “ASS1, ASL, OTC, ARG1”.

What about the “number of urea cycle genes whose expression was significantly up-regulated” value (urea cycle genes) of the same compound?
Its value is “four”.

What about the “increase in OTC gene expression (Table 14, FIG. 6)” value (OTC) of the same compound?
The value was “significant increase”.

And the “increase in ARG1 gene expression (Tables 17, 18, FIG. 9, 10)” value (ARG1)?
The value was “greatest increase”.

Which “ASL expression, Fold change (Log 2) vs untreated” value (ASL; [1]) does the source give for CC[C@@H]1/C=C/C=C/C[C@H](C)[C@H](O)[C@](C)(O)C(=O)[C@H](C)[C@@H](O)[C@H](C)C(=O)[C@H](C)[C@@H](O)[C@H](C)/C=C/C(=O)O[C@H]2[C@@H](C)[C@@H](CC1)O[C@@]1(CC[C@@H](C)[C@@H](C[C@H](C)O)O1)[C@@H]2C [Oligomycin A] here?
The value was 0.84 Log 2.

What about the “Fold change (Log 2) vs untreated, ARG1 expression” value (ARG1) of the same compound?
The value was 0.75 Log 2.

Like-named read-outs stand apart in the source and are kept apart here.
